Patent publication US20130324520A1, “RXRG MODULATORS FOR THE TREATMENT OF CANCER” (SLOAN-KETTERING INSTITUTE FOR CANCER RESEARCH, priority 2011, published 2013)

Chains of the proteins cited; added tags and fusions are not shown. Lines headed by an entry give the natural chain unless they say otherwise; changes in a name come on top.
UniProt P48443: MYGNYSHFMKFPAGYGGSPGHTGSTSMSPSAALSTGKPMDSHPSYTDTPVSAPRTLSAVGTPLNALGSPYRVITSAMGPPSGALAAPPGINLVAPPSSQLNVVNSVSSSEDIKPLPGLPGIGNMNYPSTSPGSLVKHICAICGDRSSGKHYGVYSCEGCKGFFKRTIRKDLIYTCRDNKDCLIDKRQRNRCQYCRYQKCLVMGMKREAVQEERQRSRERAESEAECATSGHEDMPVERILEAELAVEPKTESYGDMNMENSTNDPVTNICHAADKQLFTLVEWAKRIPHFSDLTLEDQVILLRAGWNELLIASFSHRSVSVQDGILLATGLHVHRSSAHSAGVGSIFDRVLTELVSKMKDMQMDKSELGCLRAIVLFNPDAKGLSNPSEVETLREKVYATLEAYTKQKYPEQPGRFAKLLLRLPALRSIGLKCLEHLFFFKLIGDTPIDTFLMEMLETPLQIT

Molecular target: T1, S-phase promoting complex in HCT116 (Homo sapiens, UniProt P48443)
T1 construct: endogenous in cells; host or cells: HCT116
Type: cell-based
Protocol: Colon cancer or lung cancer cells were passaged to dishes with coverslips, and incubated in a humidified incubator at 5% CO2 and 37° C. for 1-2 days. The medium was removed and the cells fixed in 4% PFA/PBS for 5 min, gently rinsed with 0.15 M NaCl/20 mM Tris (pH 8.0; TBS), dried, and stored at −20° C. […] After treatment of RXRG ligands or RXRG knockdown, retinoblastoma cells were spread on poly-L-lysine coated slides with medium, and incubated for 3-4 hours before fixation.
Staining with mouse antibodies: Cells were treated with 1 mM EDTA/PBS for 5 min at room temperature and, washed with PBS. […]
Co-staining analyses with other antibodies: On completing the first staining reaction as described above, cells were incubated in block 1 for 20 min, incubated overnight with primary antibody in block 1, washed in PBS, incubated for 30 min in block 1 with Cy3 or Cy5 conjugated secondary antibody, and washed in PBS. […] Mounting Media (Vector Labs), and analyzed by inverted immunofluorescent microscopy (Axioplan2 Imaging, Carl Zeiss MicroImaging, LLC).

Compound: CN1c2ccc([N+](=O)[O-])cc2N=C(c2ccc(C(=O)O)cc2)c2cc3c(cc21)C(C)(C)CCC3(C)C [HX531]
- S-phase promoting complex association (immunofluorescence): dissociation of the S-phase promoting complex; also recorded: dissociates pRb-S807 and TRB2; also recorded: dissociates pRb-S807 and RXRG; also recorded: dissociates pRb-S807 and Emi1; also recorded: dissociates pRb-S807 and p-p107; also recorded: dissociates pRb-S807 and pp130; also recorded: dissociates CDK2 and Cyclin E

“Also recorded” adds a separate entry of the source.
